# This is a sample that favours compounds with a hit; in the whole collection about 2.1% have one here.
# GSIS activator: GLuc luminescence reporter in INS-1E cells, primary screen for activators of glucose-dependent secretion of insulin | AID 743287 | INS-1E GLuc reporter insulin secretion, 2-3 h | 0.61% of 370,000 active | activation, % at 16.6 µM;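 active means lowest replicate activation of at least 40%, so every replicate reaches that level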;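 further: 0% = median of neutral control wells and 100% = median of IBMX positive control wells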
# SMARCA2 activ: activators of SMARCA2 function | AID 652017 | MG213 cells, MMTV-luciferase reporter, dexamethasone, overnight | activation, % at 9.1 µM | 1% of 370,000 active; in the data active means activation above about 7.8%;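 further: 0% = vehicle wells and 100% = reference activator wells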
# PDI inh: inhibitors of human protein disulfide isomerase. P07237. PDI insulin aggregation turbidity, A650, 90 min. inhibition, % at 10 µM. 0.052% of 350,000 active;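 active means mean inhibition across replicates of 30% or more, whatever share of single replicates reach that level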
# Rev-erbA mod: modulates human Rev-erb alpha binding to DNA; Rev-erbα–FITC-DNA binding, fluorescence polarization, 90 min; 0.79% of 370,000 active; activity, % at 10 µM; P20393;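 active means activity above about 14%, limit read from the data; passing the limit was not always enough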;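 further: 0% = DMSO wells with 35 nM protein and 100% = DMSO wells with 750 nM protein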
# ERp5 block: ERp5 (human) disulfide isomerase inhibition; Q15084; ERp5 insulin aggregation, absorbance 650 nm, 90 min; inhibition, % at 9.99 µM; 0.05% of 350,000 active; AID 651711;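 active means mean replicate inhibition above about 25%, with every replicate also reaching it, limit read from the data, passing the limit was not always enough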
# UUG fidelity: yeast start codon fidelity modulation | S. cerevisiae UUG-firefly luciferase reporter, luminescence/redox ratio | activity score, % at 18.7 µM | 0.13% of 350,000 active | AID 602363;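 active means replicate mean at a twofold rise or more, about +100% in these data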;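 further: firefly luciferase made from a UUG start codon reports start codon fidelity; reporter light over untreated wells divided by growth signal over untreated wells; some hits fall short of that in this replicate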
# Rev-erbA confirm: confirmation of modulators of human Rev-erb alpha DNA binding; shares compounds with Rev-erbA mod; Rev-erb alpha FITC-DNA binding, fluorescence polarization, 90 min; activation, % at 25 µM; 61% of 3,000 active;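 active means activation at or above a set limit, or at least 3 SD above the negative control mean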;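 further: 0% = 35 nM protein with DMSO and 100% = 750 nM protein high control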
# RORg counter: affects RORgamma DNA binding in a Rev-erb alpha counter-screen; AID 1259320; 8% of 910 active; purified RORgamma protein-FITC-DNA binding, fluorescence polarization; IC50, µM; shares compounds with Rev-erbA mod;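 active means Compounds whose fitted half-maximal concentration for disrupting protein-DNA binding is below 10 micromolar; the record names Rev-erb in its text, so the target is in doubt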
# The depositor's hits bear a star; i = inactive; . = no result.
SMILES,GSIS activator,SMARCA2 activ,PDI inh,Rev-erbA mod,ERp5 block,UUG fidelity,Rev-erbA confirm,others
CC(C)NC(=O)Nc1ccc2c(c1)C(=O)N([C@@H](C)CO)C[C@@H](C)[C@H](CN(C)S(=O)(=O)c1cccs1)O2,6.6,.,.,.,.,10.9,.,
C[C@H]1CN([C@@H](C)CO)C(=O)Cc2cc(NS(=O)(=O)c3ccccc3)ccc2O[C@H]1CN(C)C(=O)Nc1cccc2ccccc12,-4.0,.,.,.,0.7,4.3,.,
Cc1ccccc1OCCC(=O)Nc1ccc2c(C)cc(=O)oc2c1,9.0,-0.8,20.7,23.1*,-5.7,-16.5,6.3,
Cc1cc(=O)oc2cc(NC(=O)CCC(=O)O)ccc12,9.5,-1.9,-2.0,-2.6,.,-10.6,.,
Cc1cc(=O)oc2cc(NC(=O)c3cccc(F)c3)ccc12,6.6,2.1,-7.6,49.5*,0.0,-15.1,59.8*,RORg counter=>40
CC(C)C(=O)Nc1ccc2c(c1)C(=O)N(C)[C@@H]1CC[C@H](CC(=O)N[C@H](C)c3ccccc3)O[C@@H]1CO2,-7.7,.,.,.,.,-0.8,.,
COc1ccc(/C=N/NC(=O)Nc2cccc3nsnc23)c(OC)c1,.,-0.2,3.7,68.1*,.,.,23.6*,
Cc1ccccc1OCC(=O)Nc1ccccc1N1CCCCC1,.,-0.9,2.4,16.7*,.,-1.9,16.6,
Cc1ccccc1OCC(=O)Nc1cccc2nsnc12,.,3.2,1.2,105.0*,.,-0.7,54.6*,RORg counter=i
O=S(=O)(N[C@@H]1CC[C@H](CCn2cc(-c3ccc(F)cc3)nn2)O[C@@H]1CO)c1ccccc1F,-2.0,.,.,.,0.2,17.0,.,
N#Cc1c(C(F)(F)F)cc(-c2ccc(Cl)c(Cl)c2)nc1SCCN1CCOCC1,.,.,3.8,3.4,1.3,-9.7,.,
CCOC(=O)CC(=O)CSc1nc(-c2ccc3c(c2)OCO3)cc(C(F)(F)F)c1C#N,2.7,.,0.7,110.3*,3.6,-5.9,84.5*,RORg counter=>40

# 3 entries out of the list, arranged by molecular weight, low to high.
SMILES,GSIS activator,SMARCA2 activ,PDI inh,Rev-erbA mod,ERp5 block,UUG fidelity,Rev-erbA confirm,others
Cc1cc(=O)oc2cc(NC(=O)CCC(=O)O)ccc12,9.5,-1.9,-2.0,-2.6,.,-10.6,.,
CCOC(=O)CC(=O)CSc1nc(-c2ccc3c(c2)OCO3)cc(C(F)(F)F)c1C#N,2.7,.,0.7,110.3*,3.6,-5.9,84.5*,RORg counter=>40
O=S(=O)(N[C@@H]1CC[C@H](CCn2cc(-c3ccc(F)cc3)nn2)O[C@@H]1CO)c1ccccc1F,-2.0,.,.,.,0.2,17.0,.,

# The listing continues:
SMILES,GSIS activator,SMARCA2 activ,PDI inh,Rev-erbA mod,ERp5 block,UUG fidelity,Rev-erbA confirm,others
COc1ccc(-c2cc(C(F)(F)F)c(C#N)c(SCC(=O)Nc3ccc(C)cc3)n2)cc1,.,1.0,-2.1,82.8*,.,-1.1,32.1*,
CCOC(=O)CCSc1nc(-c2ccc3c(c2)OCO3)cc(C(F)(F)F)c1C#N,3.1,-2.7,-2.7,20.6*,-5.8,.,15.2,
C=CCSc1nc(-c2ccc3c(c2)OCO3)cc(C(F)(F)F)c1C#N,4.3,0.8,10.9,24.8*,.,-12.6,20.3*,
CCNC(=O)[C@@H]1[C@@H](CO)[C@@H]2Cn3c(ccc(-c4cccc(C(=O)N(C)C)c4)c3=O)[C@H]1N2,11.6,.,.,.,-2.0,.,.,
COCC(=O)N1C[C@H]2[C@@H](c3ccccc31)[C@H](CO)N2Cc1ccccc1F,11.7,.,.,.,-2.1,-16.9,.,
CNC[C@@H]1Oc2cc(-c3ccc(OC)cc3)ccc2S(=O)(=O)N([C@@H](C)CO)C[C@H]1C,9.8,.,.,.,.,17.7,.,
COc1ccc(-c2noc(-c3ccc(Br)o3)n2)cc1OC,.,-1.4,2.6,-0.5,.,-8.7,.,
COc1cc(-c2nc(-c3ccc(Br)o3)no2)cc(OC)c1OC,.,-4.7,6.9,27.2*,-6.4,-23.2,8.4,
CCOc1ccc(N(Cc2cc3ccc(C)cc3[nH]c2=O)S(=O)(=O)c2ccccc2)cc1,1.9,-3.9,-5.9,1.1,.,1.3,.,
Cc1cccc(N(Cc2cc3ccc(C)cc3[nH]c2=O)S(=O)(=O)c2ccccc2)c1,18.3,1.4,-12.0,21.2,4.5,-21.9,.,
Cc1ccc2cc(CN(c3cccc(C)c3C)S(=O)(=O)c3ccccc3)c(=O)[nH]c2c1,5.5,-0.8,2.6,20.4*,6.1,-21.0,-1.6,
Cc1ccc(N(Cc2cc3ccc(C)cc3[nH]c2=O)S(=O)(=O)c2ccccc2)c(C)c1,30.0,3.9,0.5,14.9*,4.2,0.4,9.0,
Cc1ccc2cc(CN(c3ccccc3)S(=O)(=O)c3ccccc3)c(=O)[nH]c2c1,.,2.1,-0.6,30.9*,6.1,.,4.7,
COc1cc2c(cc1OC)CN(C(=O)[C@H]1[C@@H]3C(=O)O[C@@H](c4ccccc4)[C@@H](c4ccccc4)N3[C@@H](c3ccccc3OCCO)[C@]13C(=O)Nc1ccccc13)CC2,.,.,.,.,1.1,-15.1,.,
O=C(C[C@H]1C=C[C@H](NC(=O)CCN2CCCCC2)[C@H](CO)O1)Nc1ccc(-c2ccccc2)cc1,5.4,.,.,.,-2.8,0.8,.,

# Among those listed so far, two have a furan ring, fused or not:
SMILES,GSIS activator,SMARCA2 activ,PDI inh,Rev-erbA mod,ERp5 block,UUG fidelity,Rev-erbA confirm,others
COc1ccc(-c2noc(-c3ccc(Br)o3)n2)cc1OC,.,-1.4,2.6,-0.5,.,-8.7,.,
COc1cc(-c2nc(-c3ccc(Br)o3)no2)cc(OC)c1OC,.,-4.7,6.9,27.2*,-6.4,-23.2,8.4,

# Screening results: PubChem BioAssay, several laboratories
